# Literature values as cited in patent publication US20230096856A1, “COMBINED TREATMENT REGIMEN OF […]/SEDATION WITH ADMINISTRATION OF P[…] ASSOCIATED WITH REDUCTION IN NEUROP[…]” (priority 2021, published 2023).
# By UniProt entry, the sequences of proteins in these tests, tags left out.
# UniProt P08908, whole entry, species assumed: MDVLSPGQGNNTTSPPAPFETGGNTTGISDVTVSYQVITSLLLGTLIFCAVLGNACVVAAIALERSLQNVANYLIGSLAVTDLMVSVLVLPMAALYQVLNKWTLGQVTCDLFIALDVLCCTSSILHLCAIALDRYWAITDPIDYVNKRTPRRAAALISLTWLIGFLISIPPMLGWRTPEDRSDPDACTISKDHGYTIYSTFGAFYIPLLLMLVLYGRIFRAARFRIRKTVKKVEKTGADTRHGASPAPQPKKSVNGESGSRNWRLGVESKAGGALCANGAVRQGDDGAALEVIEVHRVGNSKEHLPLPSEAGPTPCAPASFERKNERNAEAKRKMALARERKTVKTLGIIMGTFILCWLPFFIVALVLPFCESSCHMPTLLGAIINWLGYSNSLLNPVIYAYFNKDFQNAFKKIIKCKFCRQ
# UniProt P28223, whole entry: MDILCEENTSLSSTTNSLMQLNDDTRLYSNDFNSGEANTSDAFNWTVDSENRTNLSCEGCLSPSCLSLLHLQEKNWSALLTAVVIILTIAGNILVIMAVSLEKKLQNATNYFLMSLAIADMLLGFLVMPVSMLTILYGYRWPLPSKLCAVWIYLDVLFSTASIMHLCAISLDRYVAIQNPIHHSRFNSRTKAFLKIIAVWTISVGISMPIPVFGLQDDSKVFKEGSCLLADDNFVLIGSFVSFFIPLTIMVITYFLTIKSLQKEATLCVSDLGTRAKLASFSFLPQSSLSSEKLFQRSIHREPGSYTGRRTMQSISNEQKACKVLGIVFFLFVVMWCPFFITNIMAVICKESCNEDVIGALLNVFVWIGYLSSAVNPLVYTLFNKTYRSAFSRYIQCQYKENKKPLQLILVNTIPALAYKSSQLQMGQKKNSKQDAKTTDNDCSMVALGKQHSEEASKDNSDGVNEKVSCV
# UniProt P28221, whole entry, species assumed: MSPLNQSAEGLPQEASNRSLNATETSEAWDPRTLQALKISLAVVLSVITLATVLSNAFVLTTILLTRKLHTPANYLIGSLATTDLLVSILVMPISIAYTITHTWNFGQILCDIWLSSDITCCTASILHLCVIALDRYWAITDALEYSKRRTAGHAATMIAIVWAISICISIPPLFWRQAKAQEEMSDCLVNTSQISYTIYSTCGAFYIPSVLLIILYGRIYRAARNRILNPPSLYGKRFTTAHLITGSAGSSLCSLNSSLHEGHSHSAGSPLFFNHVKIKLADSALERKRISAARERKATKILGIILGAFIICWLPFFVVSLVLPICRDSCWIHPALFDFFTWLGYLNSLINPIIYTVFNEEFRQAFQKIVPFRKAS
# UniProt P50406, whole entry, species assumed: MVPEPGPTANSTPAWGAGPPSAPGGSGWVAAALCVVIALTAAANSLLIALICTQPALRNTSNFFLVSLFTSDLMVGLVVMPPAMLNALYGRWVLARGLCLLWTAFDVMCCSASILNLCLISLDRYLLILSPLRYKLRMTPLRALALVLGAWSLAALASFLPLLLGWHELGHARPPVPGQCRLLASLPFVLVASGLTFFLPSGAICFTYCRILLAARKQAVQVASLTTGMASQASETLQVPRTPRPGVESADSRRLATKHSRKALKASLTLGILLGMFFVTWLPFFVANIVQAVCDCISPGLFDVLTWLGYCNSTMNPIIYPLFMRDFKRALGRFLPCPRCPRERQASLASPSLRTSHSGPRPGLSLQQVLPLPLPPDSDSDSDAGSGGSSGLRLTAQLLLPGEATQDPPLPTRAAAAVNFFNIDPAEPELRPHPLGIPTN
# UniProt P34969, whole entry, species assumed: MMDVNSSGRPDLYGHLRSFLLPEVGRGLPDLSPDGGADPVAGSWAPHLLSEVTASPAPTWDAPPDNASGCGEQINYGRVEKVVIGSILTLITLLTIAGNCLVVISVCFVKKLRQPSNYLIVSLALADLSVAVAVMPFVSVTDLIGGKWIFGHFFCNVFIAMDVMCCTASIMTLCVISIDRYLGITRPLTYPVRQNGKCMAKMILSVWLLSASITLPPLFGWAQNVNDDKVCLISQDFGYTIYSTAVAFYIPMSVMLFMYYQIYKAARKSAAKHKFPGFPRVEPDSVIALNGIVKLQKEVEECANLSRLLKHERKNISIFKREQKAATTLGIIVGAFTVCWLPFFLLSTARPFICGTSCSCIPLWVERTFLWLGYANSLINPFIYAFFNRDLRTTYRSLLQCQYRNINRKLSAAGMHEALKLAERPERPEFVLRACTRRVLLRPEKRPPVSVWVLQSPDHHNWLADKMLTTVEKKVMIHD
# Key:
# [1] = biological target: 5-HT1a (Homo sapiens, UniProt P08908)
# [2] = biological target: 5HT2a (Homo sapiens, UniProt P28223)
# [3] = biological target: 5-HT1d (Homo sapiens, UniProt P28221)
# [4] = biological target: 5-HT6 (Homo sapiens, UniProt P50406)
# [5] = biological target: 5-HT7 (Homo sapiens, UniProt P34969)
compound,measurement,setting,value
"COc1ccc2[nH]cc(CCN(C)C)c2c1 [5-MeO-DMT, 5-5-Methoxy-N,N-dimethyltryptamine]",affinity for 5-HT1a,[1],high affinity
same,affinity for 5HT2a,[2],high affinity
same,affinity for 5-HT1d,[3],lessor affinity
same,affinity for 5-HT6,[4],lessor affinity
same,affinity for 5-HT7,[5],lessor affinity; also recorded: shows binding activity

# Entries after “also recorded” stand apart in the source; their conditions may differ.
